Values quoted from earlier work as cited in patent US10688087B2, “Pharmaceutical compositions and therapeutic methods employing a combination of a manganese complex compound and a non-manganese complex form of the compound” (PLEDPHARMA AB, priority 2009, dated 2020).

Details: dose level of 10 μmol/kg b.w. MnDPDP (Toft et al., 1997); cited from earlier work

Cc1ncc(COP(=O)(O)O)c(CN(CCN(CC(=O)O)Cc2c(COP(=O)(O)O)cnc(C)c2O)CC(=O)O)c1O.[Mn] [MnDPDP, Manganese N,N′-bis-(pyridoxal-5-phosphate)-ethylenediamine-N,N′-diacetic acid]
fraction of MnDPDP metabolized into MnPLED: about ⅓
